Experimental data taken from patent US12616751B2, “Photosensitizing antibody-fluorophore conjugates” (The USA, as represented by the Secretary, Department of …, priority 2010, dated 2026).

Legend:
3T3/HER2 cells = assay: Long term viability/growth after PIT (microscopy, trypan blue); type: cell-based
3T3/HER2 lung metastases = assay: PIT of lung metastases
3T3/HER2+ cells [1] = assay: Photoimmunotherapy (PIT) phototoxicity, LIVE/DEAD assay; type: cell-based
Experimental: Cells were grown in RPMI 1640 supplemented with 10% fetal bovine serum and 1% penicillin/streptomycin in tissue culture flasks in a humidified incubator at 37° C. in an atmosphere of 95% air and 5% carbon dioxide.
Culture medium was replaced with phenol red-free medium after washing with phosphate buffered saline (PBS).

SHAW cells = assay: In vitro PIT, microscopy before and after; type: cell-based
Experimental: (§1) For photoimmunotherapy (PIT), cells were seeded on 35 mm cover glass-bottomed dishes and incubated 24 hours. […] Culture medium was replaced with phenol red-free medium after washing with phosphate buffered saline (PBS). Cells were irradiated with light at 670 nm to 690 nm using a red light emitting diode (LED; FluorVivo; INDEC Systems Inc., Capitola, Calif.) with a power density of 2.6 mW cm^−2 as measured with optical power meter (PM 100, Thorlabs, Newton, N.J.). Cell viability was assessed 1 hour after treatment with LIVE/DEAD® Fixable Green Dead Cell Stain Kit (Invitrogen). After the treatment, cells were trypsinized and washed with PBS. Green fluorescent reactive dye was added in the cell suspension and incubated at room temperature for 30 minutes. Cells were then analyzed on flow cytometer (FACS Calibur, BD BioSciences, San Jose, Calif.).
(§2) This example describes additional results showing that the disclosed antibody-IR700 compounds selectively kill cells that express the appropriate protein. The photoimmunotherapy (PIT) methods are described in Example 2.

MDA-MB-453 cells = assay: In vitro PIT, microscopy before and after; type: cell-based
Experimental: as §1, §2

SKOV3 cells = assay: In vitro PIT, microscopy before and after; type: cell-based
Experimental: as §1, §2

3T3/HER2+ tumors = assay: In vivo imaging and PIT of 3T3/HER2+ tumor xenografts
3T3/HER2+ cells [2] = assay: Fluorescence microscopy, subcellular localization of IR700; type: cell-based; conditions: after 1 h and 6 h incubation; power density 2.2 mW cm-2
Experimental: Fluorescence microscopy was performed with a BX51 or IX81 microscope (Olympus America, Melville, N.Y.). The filter was set to detect IR700 and consisted of a 590-650 nm excitation filter, and a 665-740 nm band pass emission filter. To detect DsRed protein, a filter set consisting of a 480-550 nm excitation filter, and a 590 nm long pass emission filter was employed.
Fluorescence microscopy was performed to test the subcellular localization of IR700 in 3T3/HER2+ cells. Cells were seeded on cover glass-bottomed dishes and incubated for 24 hours.

Balb/3T3/DsRed cells = assay: PIT and microscopy in receptor-negative control cells; type: cell-based
Experimental: HER2 gene-transfected NIH3T3 (3T3/HER2+) cells were used for target photodynamic therapy (PDT). As a control, Balb/3T3 cells which express DsRed fluorescent protein but not HER2 (Balb/3T3/DsRed) were employed. Cells were grown in RPMI 1640 supplemented with 10% fetal bovine serum and 1% penicillin/streptomycin in tissue culture flasks in a humidified incubator at 37° C. in an atmosphere of 95% air and 5% carbon dioxide.
EGFR-expressing A431 cells were used as the target HER1+ cells. […] Cells were grown in RPMI 1640 supplemented with 10% fetal bovine serum and 1% penicillin/streptomycin in tissue culture flasks in a humidified incubator at 37° C. in an atmosphere of 95% air and 5% carbon dioxide. A431 or Balb/3T3/DsRed cells were seeded on cover glass-bottomed dishes and incubated for 24 hours. Pan-IR700 was added to the culture medium at 10 μg/mL and incubated either for 1 hour on ice or 6 hours at 37° C., then cells were washed with PBS. Culture medium was replaced with phenol red-free medium after washing with phosphate buffered saline (PBS).

Balb/3T3 tumors = assay: In vivo imaging and PIT of Balb/3T3 tumor xenografts; set-up: species or system mice; conditions: mouse
3T3/HER2 tumors = assay: In vivo delivery of Tra-IR800 after Tra-IR700 PIT; set-up: species or system mice; conditions: 50 J/cm2 to right side tumor; agent 1 h after PIT
From the text: In vivo fluorescence imaging. Five days after injection of two million A431 or 3T3-HER2 cells in right and left dorsums, and seven days after MDA-MB-468 cells injection in mammary pads, tumor volumes of approximately 75 mm^3 were selected. Signals of IR700 and IR800 was detected with a fluorescence camera (Pearl Imager, LI-COR Biosciences) using the 700 and 800 nm fluorescence channel Qdot800 was detected with Maestro in vivo Imaging System (CRi) using a band-pass filter, which ranges between 575 to 605 nm (excitation) and a long-pass NIR filter over 800 nm (emission). Fluorescence images of daunorubicin were also obtained with Maestro using a band-pass filter from 503 to 555 nm (excitation) and a long-pass green filter over 580 nm (emission). The tunable emission filter was automatically stepped in 10 nm increments from 650 to 950 nm and from 500 to 800 nm for the NIR and green filter sets at constant exposure. The spectral fluorescence images consist of autofluorescence spectra and the spectra from Qdot800 and daunorubicin, which were then unmixed, based on their spectral patterns using commercial software (Maestro software; CRi). Mice were sacrificed with carbon dioxide immediately after in vivo imaging. The tumors were excised, and frozen or paraffin-embedded for histological study and fluorescence microscopy study after ex vivo imaging. […]

Substance: Tra-IR700: Trastuzumab (humanized anti-HER2 mAb) conjugated to IRDye 700DX; about 3 IR700 per antibody
- viability, trypan blue dye exclusion (3T3/HER2 cells; PDT 2.0 J cm^−2, versus conjugate only, PDT only, no treatment): significantly reduced viability
- lung metastases (3T3/HER2 lung metastases; 100 μg i.v., 30 J/cm2 NIR light 2 days later): lung metastases cleared
- overall survival time (3T3/HER2 lung metastases; […]): increase in the overall survival time
- phototoxic effect without washing cells prior to irradiation (3T3/HER2+ cells [1]): did not influence the phototoxic effect
- phototoxicity with excess unconjugated trastuzumab (3T3/HER2+ cells [1]): dose-dependently blocked
- phototoxicity, 1 h versus 6 h incubation (3T3/HER2+ cells [1]): no significant difference in phototoxicity
- cell killing by PIT (microscopy) (3T3/HER2+ cells [1]; FIG. 8): specifically killed
- cell death versus light dose (3T3/HER2+ cells [1]; LIVE/DEAD, 1 hour after PIT): light dose dependent
- percentage of cell death in presence of sodium azide (3T3/HER2+ cells [1]; NaN3 in medium during irradiation): partially decreased
- cell killing by PIT (microscopy) (SHAW cells): specifically killed
- cell killing by PIT (microscopy) (MDA-MB-453 cells): specifically killed
- cell killing by PIT (microscopy) (SKOV3 cells): specifically killed
- other localization of IR700 (biodistribution) (3T3/HER2+ tumors; 300 μg): No other specific localization of IR700 was found except for the bladder accumulation on day 1
- tumor growth (3T3/HER2+ tumors; 300 μg i.v., 50 J cm^−2, day 4, 7, 10 and 14 after treatment): significant tumor growth inhibition
- tumor shrinkage of irradiated tumor (3T3/HER2+ tumors; 300 μg, NIR light on day 1): Tumor shrinkage was confirmed on day 7
- lethal side effects (3T3/HER2+ tumors; during or after the treatment): no lethal side effects were found
- cell changes induced by excitation light (3T3/HER2+ cells [2]): cellular swelling, bleb formation, and rupture of vesicles representing necrotic cell death
- phototoxicity in co-culture (Balb/3T3/DsRed cells; 1.0 J cm^−2 after 1 or 6 hours incubation at 37° C.): did not show phototoxicity upon irradiation
- long term growth inhibition (Balb/3T3/DsRed cells; Balb/3T3 (HER2 negative) cells exposed to light): long term growth inhibition was not observed
- therapeutic effect of irradiation (Balb/3T3 tumors): did not show significant therapeutic effect

Substance: Tra-IR800: trastuzumab conjugated to IRDye 800CW
- tumor shown in dynamic images (3T3/HER2 tumors): only the right sided tumor was clearly shown up within 10 min

Substance: trastuzumab: recombinant humanized monoclonal antibody against extracellular domain of HER2 [reference compound]
- growth with unconjugated antibody (3T3/HER2 cells; dose used): did not reduce growth
